Data from BindingDB's records for US9212153.

Target: Beta-secretase 1 [1-458] (Homo sapiens, UniProt P56817)
Assay: BACE Enzyme Assay (Ex.434)
Conditions: pH 4.5

Which IC50 does the source give for `COC1CCC2(CC1)Cc1ccc(C#CC(F)(F)F)cc1C21N=C(N)N(C)C1=O` (stereo unspecified) here?
Its IC50 is 4.9 nM.
